Experimental data published in PMC6329626 (British Journal of Pharmacology, 2018).

Sequences of proteins named here, by UniProt entry; tags and fusion partners are left off.
UniProt P24462, whole entry: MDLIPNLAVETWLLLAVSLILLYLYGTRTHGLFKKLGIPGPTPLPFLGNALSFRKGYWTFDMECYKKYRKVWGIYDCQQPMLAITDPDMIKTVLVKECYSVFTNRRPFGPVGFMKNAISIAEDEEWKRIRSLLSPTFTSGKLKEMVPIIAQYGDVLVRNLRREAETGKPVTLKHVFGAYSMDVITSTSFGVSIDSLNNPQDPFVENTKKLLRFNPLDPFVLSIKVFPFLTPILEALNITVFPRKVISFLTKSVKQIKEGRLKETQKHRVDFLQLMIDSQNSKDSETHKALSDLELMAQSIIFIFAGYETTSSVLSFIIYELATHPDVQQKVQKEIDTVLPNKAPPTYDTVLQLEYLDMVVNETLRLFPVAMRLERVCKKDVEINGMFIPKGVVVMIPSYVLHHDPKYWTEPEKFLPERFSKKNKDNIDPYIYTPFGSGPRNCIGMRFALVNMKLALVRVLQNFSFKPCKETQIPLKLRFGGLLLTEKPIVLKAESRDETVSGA

Target: recombinant CYP3A7 (Homo sapiens, UniProt P24462)
Experiment: Enzyme kinetics of flucloxacillin hydroxylation by CYP3A7 Supersomes
Format: in vitro ADME
Details: 100 nM CYP3A7 Supersomes, 10 min

Compound: Cc1onc(-c2c(F)cccc2Cl)c1C(=O)N[C@@H]1C(=O)N2[C@@H]1SC(C)(C)[C@@H]2C(=O)O [flucloxacillin]
- K M of 5′-HM-FLX formation: 65 ± 8 µM
